Test results reported in patent publication US9119845B2, “Method for the treatment of neurological disorders by enhancing the activity of beta-glucocerebrosidase” (Amicus Therapeautics, Inc., priority 2006, dated 2015).

The chains behind the UniProt entries cited, without tags or fusion partners. Residues count along the entry.
UniProt P04062, 40-536: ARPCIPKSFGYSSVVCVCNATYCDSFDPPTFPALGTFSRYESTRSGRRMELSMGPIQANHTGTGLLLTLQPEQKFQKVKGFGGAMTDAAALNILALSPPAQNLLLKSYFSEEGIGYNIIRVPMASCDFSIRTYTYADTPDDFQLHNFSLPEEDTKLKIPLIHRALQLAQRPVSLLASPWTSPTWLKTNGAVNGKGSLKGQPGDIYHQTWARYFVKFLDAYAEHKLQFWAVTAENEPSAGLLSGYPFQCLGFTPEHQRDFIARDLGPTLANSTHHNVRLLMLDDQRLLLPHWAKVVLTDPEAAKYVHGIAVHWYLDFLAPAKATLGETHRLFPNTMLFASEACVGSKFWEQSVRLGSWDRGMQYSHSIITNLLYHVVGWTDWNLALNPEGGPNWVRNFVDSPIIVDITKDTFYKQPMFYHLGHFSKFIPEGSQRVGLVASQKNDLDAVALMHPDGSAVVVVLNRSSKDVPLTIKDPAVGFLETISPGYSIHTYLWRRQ

Target: GCase (Homo sapiens (Human), UniProt P04062)
Test: biochemical

For `CC(C)=CCN1C[C@H](CO)[C@@H](O)[C@H](O)C1` [Compound 4, (3R,4R,5R)-5-(hydroxymethyl)-1-(3-methylbut-2-enyl)piperidine-3,4-diol], which IC50 is on record?
Its IC50 is 4 ± 0.035 µM.

`COCCN1C[C@H](CO)[C@@H](O)[C@H](O)C1` [Compound 5, (3R,4R,5R)-5-(hydroxymethyl)-1-(2-methoxyethyl)piperidine-3,4-diol] was tested. Which IC50 did it give?
Its IC50 is 5.99 ± 0.11 µM.

With `Cc1ccc(CN2C[C@H](CO)[C@@H](O)[C@H](O)C2)cc1` [Compound 9, (3R,4R,5R)-5-(hydroxymethyl)-1-(4-methylbenzyl)piperidine-3,4-diol] as the compound, how does the IC50 read?
The IC50 was 130 ± 14.7 µM.

`OC[C@H]1CN(CC2CCOCC2)C[C@@H](O)[C@@H]1O` [Compound 15, (3R,4R,5R)-5-(hydroxymethyl)-1-((tetrahydro-2H-pyran-4-yl)methyl)piperidine-3,4-diol] was tested. Which IC50 did it give?
Its IC50 is 49.2 ± 5.5 µM.

Which IC50 does the source give for `OC[C@H]1CN(Cc2cccs2)C[C@@H](O)[C@@H]1O` [Compound 18, (3R,4R,5R)-5-(hydroxymethyl)-1-(thiophen-2-ylmethyl)piperidine-3,4-diol] here?
The IC50 was 27.6 ± 0.49 µM.

With `OC[C@H]1CN(Cc2ccncc2)C[C@@H](O)[C@@H]1O` [Compound 19, (3R,4R,5R)-5-(hydroxymethyl)-1-(pyridin-4-ylmethyl)piperidine-3,4-diol] as the compound, how does the IC50 read?
The IC50 was 19.3 ± 1.24 µM.

Which IC50 does the source give for `OC[C@H]1CN(Cc2ccco2)C[C@@H](O)[C@@H]1O` [Compound 17] here?
The IC50 was 280 ± 62.6 µM.

How did the IC50 turn out when `CC(C)CCCN1C[C@H](CO)[C@@H](O)[C@H](O)C1` [Compound 24, (3R,4R,5R)-5-(hydroxymethyl)-1-(4-methylpentyl)piperidine-3,4-diol] was run?
Its IC50 is 2.13 ± 0.17 µM.

How did the IC50 turn out when `Nc1ccc(CN2C[C@H](CO)[C@@H](O)[C@H](O)C2)cc1` [Compound 12, (3R,4R,5R)-1-(4-aminobenzyl)-5-(hydroxymethyl)piperidine-3,4-diol] was run?
Its IC50 is 9.36 ± 1.16 µM.

With `Cc1ccccc1CN1C[C@H](CO)[C@@H](O)[C@H](O)C1` [Compound 7, (3R,4R,5R)-5-(hydroxymethyl)-1-(2-methylbenzyl)piperidine-3,4-diol] as the compound, how does the IC50 read?
The IC50 was 69.5 ± 8.18 µM.

With `OC[C@H]1CN(Cc2ccccc2)C[C@@H](O)[C@@H]1O` [Compound 6, (3R,4R,5R)-1-benzyl-5-(hydroxymethyl)piperidine-3,4-diol] as the compound, how does the IC50 read?
The IC50 was 200 ± 61.8 µM.

How did the IC50 turn out when `CCCCCCCN1C[C@H](CO)[C@@H](O)[C@H](O)C1` [Compound 3, (3R,4R,5R)-1-heptyl-5-(hydroxymethyl)piperidine-3,4-diol] was run?
Its IC50 is 41.7 ± 3.05 µM.
